{
  "sequences": {"note": "Protein sequences, listed by entry. Tags and fused reporters are not part of them. Lines headed by an entry give the natural chain unless they say otherwise; changes in a name come on top.", "UniProt P97266, whole entry": "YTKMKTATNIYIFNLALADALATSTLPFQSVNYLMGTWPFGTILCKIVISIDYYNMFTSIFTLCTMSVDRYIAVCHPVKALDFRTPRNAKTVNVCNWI", "UniProt P41144": "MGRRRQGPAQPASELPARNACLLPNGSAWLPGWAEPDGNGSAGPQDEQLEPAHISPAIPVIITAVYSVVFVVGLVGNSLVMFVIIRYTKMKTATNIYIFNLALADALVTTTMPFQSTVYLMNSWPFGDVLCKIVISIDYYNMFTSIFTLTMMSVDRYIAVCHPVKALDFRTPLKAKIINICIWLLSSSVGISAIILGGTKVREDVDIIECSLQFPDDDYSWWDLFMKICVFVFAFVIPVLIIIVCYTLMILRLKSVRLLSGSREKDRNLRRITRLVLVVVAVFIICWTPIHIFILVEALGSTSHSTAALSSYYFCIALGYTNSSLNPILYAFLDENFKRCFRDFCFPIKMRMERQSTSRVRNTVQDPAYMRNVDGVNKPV"},
  "source": "ChEMBL document CHEMBL1130045",
  "about": "“7-Spiroindanyl derivatives of naltrexone and oxymorphone as selective ligands for delta opioid receptors” (J Med Chem, 1997)",
  "key": {"[1]": {"molecular_target": "Mu-type opioid receptor (Cavia porcellus) (UniProt P97266)", "experiment": "Antagonist activity against electrically stimulated guinea pig ileum using morphine (M) as mu opioid receptor agonist", "type": "functional, tissue-based", "how_it_was_run": "(§1)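 Electrically stimulated guinea pig ileum (morphine, μ; ethylketazocine, κ) or mouse vas deferens (DADLE, δ). The test ligand is incubated with the tissue for 15 min, then the agonist curve is run with 100 nM antagonist present. Read-out is the IC50 ratio: agonist IC50 with antagonist divided by the control IC50 in the same preparation. Three or more replicates.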"}, "[2]": {"molecular_target": "Kappa-type opioid receptor (Cavia porcellus) (UniProt P41144)", "experiment": "Antagonist activity against electrically stimulated guinea pig ileum using ethylketazocine (EK) as kappa opioid receptor agonist", "type": "functional, tissue-based", "how_it_was_run": "as §1"}},
  "data": [
    {"molecule": "O=C1[C@@H]2Oc3c(O)ccc4c3[C@@]23CCN(CC2CC2)[C@H](C4)[C@]3(O)CC12Cc1ccccc1C2", "values": [
      {"measurement": "IC50 ratio", "setting": "[1]", "result": 24.9},
      {"measurement": "IC50 ratio", "setting": "[2]", "result": 1.95}
    ]}
  ]
}
